According to patent US8748113B2, “Methods for detecting and monitoring circulating cancer stem cells” (The Johns Hopkins University, priority 2007, dated 2014):

Assays:
Assay type in all cases: cell-based, human
clonogenic MM cells = assay: In vitro clonogenic growth of MM precursors (summary statements); details: summary statement
Text: Many agents are active in multiple myeloma (MM), but the majority of patients relapse. […] We further characterized clonogenic MM cells and stained cell lines using the Hoechst side population and Aldefluor assays. […] Furthermore, both the side population and Aldefluor assays were capable of identifying circulating clonotypic memory B cell populations within the peripheral blood of MM patients.
Rituximab and alemtuzumab, two humanized monoclonal antibodies that target the B-cell antigens CD20 and CD52, respectively, inhibit clonogenic MM cells. CD138^− precursors or CD138^+ plasma cells were isolated from the RPMI 8226 or NCI-H929 cell lines and treated with each of the two humanized monoclonal antibodies, rituximab or alemtuzumab, and in combination with human complement that strongly enhances their in vitro activity through complement dependent cytoxicity. Neither complement alone nor the monoclonal antibodies with or without complement affected the clonogenic growth of CD138^+ plasma cells that lack the target antigens (FIG. 8B; P>0.3 for all groups compared to the untreated control).
Although stem cells have been identified in an increasing number of human cancers, the clinical relevance and implications of these findings remain unclear. […]

[1] = system: CD138+ plasma cells from the RPMI 8226 and NCI-H929 MM cell lines; assay: Clonogenic growth of CD138+ plasma cells isolated from MM cell lines; details: FIGS. 10A and B, P<0.02 compared to the untreated control
[2] = system: CD138neg MM progenitors derived from primary clinical specimens; assay: Clonogenic recovery of CD138neg MM progenitors from primary clinical samples; details: 4 MM patients; FIG. 10C; P>0.2 compared to the untreated control

Substance: 4 hydroperoxycyclophosphamide
- effect of anti-myeloma agents on CD138neg precursors / clonogenic MM progenitors (clonogenic MM cells): little effect
- clonogenic growth of CD138+ plasma cells [1]: inhibited
- effect on clonogenic MM precursors from patients [2]: not significantly affected
